By UniProt entry, the sequences of proteins in these tests, tags left out. Where a name states a change or a piece, a line headed by the entry shows the natural chain unless it says otherwise.
UniProt Q8IYT8: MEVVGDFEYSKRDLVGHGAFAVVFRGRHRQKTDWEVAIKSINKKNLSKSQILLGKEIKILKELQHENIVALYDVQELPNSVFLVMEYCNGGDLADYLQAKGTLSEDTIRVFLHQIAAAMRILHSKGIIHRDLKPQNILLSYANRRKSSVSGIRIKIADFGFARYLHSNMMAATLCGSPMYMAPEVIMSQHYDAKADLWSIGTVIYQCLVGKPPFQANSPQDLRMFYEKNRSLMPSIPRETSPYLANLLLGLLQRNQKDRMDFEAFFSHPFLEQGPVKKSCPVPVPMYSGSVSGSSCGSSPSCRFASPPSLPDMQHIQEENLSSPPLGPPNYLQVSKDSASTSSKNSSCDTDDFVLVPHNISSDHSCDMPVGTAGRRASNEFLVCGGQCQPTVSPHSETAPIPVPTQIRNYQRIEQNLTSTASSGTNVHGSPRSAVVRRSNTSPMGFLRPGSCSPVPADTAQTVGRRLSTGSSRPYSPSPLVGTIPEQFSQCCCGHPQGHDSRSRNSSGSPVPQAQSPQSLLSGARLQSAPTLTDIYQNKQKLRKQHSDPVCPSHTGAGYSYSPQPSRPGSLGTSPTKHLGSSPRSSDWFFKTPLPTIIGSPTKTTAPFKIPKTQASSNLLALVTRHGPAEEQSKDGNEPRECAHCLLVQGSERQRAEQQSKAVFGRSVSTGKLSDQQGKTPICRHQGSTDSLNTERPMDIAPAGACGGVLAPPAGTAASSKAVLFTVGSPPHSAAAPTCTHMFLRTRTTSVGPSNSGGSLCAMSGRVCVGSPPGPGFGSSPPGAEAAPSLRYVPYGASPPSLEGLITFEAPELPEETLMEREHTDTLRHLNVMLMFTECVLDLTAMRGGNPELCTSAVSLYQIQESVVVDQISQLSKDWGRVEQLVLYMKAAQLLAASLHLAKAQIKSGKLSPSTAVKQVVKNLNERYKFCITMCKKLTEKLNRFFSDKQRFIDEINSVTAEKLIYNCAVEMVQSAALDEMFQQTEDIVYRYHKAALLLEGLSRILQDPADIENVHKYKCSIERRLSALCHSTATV
UniProt Q92630: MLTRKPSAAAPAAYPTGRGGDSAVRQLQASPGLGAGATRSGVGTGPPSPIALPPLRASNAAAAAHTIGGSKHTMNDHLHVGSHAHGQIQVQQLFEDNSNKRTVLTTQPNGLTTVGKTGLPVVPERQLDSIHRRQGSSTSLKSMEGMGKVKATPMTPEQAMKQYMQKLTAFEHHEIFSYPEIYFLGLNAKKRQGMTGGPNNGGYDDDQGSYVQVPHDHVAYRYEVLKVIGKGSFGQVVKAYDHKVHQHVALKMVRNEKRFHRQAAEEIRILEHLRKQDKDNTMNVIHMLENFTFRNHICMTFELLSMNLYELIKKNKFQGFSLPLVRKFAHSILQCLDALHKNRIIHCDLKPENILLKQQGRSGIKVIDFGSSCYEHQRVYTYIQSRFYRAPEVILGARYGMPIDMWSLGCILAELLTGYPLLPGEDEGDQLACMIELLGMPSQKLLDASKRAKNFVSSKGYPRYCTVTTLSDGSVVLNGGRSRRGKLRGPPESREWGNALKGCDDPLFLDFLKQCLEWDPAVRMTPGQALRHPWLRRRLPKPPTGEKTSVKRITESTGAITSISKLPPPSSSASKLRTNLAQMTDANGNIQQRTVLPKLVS
UniProt Q02779: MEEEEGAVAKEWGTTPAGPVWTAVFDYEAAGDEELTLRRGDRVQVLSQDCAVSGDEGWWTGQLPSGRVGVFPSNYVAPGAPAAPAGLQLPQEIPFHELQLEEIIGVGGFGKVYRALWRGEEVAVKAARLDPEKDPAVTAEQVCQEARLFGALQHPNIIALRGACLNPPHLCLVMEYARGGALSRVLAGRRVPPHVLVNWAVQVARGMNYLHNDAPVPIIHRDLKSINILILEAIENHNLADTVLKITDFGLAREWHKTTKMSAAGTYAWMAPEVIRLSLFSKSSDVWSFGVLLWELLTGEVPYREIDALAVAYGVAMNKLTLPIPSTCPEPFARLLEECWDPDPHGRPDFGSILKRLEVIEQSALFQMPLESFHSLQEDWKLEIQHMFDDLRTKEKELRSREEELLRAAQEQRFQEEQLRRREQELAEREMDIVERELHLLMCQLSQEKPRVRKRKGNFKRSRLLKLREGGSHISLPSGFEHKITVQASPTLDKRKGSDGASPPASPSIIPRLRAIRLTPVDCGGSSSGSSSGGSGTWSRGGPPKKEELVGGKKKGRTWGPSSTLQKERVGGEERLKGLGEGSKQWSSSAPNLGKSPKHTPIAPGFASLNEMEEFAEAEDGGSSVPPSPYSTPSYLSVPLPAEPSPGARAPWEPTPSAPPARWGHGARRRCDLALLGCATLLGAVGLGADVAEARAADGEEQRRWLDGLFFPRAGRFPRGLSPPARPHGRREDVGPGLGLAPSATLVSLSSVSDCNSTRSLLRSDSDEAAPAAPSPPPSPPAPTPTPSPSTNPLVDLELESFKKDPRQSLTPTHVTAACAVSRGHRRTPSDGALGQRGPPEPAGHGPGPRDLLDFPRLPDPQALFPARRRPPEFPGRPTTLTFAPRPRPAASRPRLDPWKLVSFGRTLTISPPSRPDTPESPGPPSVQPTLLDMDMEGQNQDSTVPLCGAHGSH
UniProt Q16620, whole entry, looked up: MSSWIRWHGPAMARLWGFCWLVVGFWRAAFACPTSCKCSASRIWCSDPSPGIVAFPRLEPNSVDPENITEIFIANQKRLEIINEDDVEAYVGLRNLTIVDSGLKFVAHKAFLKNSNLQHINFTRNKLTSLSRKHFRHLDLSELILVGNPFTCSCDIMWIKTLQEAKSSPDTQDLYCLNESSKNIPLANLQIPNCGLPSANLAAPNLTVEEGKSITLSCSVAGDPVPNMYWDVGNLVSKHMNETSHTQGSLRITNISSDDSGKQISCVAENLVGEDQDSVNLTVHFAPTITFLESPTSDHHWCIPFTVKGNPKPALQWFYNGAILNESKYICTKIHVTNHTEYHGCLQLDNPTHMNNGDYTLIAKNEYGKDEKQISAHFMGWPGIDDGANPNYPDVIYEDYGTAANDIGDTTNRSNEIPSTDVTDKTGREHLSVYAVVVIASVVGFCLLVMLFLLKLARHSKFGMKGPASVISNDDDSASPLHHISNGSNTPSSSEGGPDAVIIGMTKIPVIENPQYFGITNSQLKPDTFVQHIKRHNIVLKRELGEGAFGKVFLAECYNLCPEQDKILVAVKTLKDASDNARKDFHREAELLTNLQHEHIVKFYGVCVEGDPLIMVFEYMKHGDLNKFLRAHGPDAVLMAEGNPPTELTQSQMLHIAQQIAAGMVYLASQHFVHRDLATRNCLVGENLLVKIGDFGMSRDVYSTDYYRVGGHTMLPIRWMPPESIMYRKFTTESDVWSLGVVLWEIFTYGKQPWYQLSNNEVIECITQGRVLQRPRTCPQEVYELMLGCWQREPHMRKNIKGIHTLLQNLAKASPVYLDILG
UniProt Q9NQU5: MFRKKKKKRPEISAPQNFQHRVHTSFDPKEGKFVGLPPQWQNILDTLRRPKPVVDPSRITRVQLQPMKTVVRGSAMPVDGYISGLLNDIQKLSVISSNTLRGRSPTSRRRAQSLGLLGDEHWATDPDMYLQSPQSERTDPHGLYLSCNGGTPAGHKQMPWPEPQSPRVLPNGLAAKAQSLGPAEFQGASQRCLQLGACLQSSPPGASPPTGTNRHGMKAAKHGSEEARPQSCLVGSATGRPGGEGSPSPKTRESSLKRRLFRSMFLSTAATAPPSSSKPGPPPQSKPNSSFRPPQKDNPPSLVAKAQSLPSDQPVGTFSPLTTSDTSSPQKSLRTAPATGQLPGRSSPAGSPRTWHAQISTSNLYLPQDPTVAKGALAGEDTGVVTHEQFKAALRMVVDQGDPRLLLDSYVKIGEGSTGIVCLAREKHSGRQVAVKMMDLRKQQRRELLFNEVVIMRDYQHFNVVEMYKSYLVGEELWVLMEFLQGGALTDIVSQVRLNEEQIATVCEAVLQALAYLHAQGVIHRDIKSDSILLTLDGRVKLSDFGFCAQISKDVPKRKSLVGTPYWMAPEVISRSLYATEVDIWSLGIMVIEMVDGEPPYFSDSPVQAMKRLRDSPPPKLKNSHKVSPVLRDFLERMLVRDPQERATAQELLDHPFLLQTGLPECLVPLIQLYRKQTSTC
UniProt P54760: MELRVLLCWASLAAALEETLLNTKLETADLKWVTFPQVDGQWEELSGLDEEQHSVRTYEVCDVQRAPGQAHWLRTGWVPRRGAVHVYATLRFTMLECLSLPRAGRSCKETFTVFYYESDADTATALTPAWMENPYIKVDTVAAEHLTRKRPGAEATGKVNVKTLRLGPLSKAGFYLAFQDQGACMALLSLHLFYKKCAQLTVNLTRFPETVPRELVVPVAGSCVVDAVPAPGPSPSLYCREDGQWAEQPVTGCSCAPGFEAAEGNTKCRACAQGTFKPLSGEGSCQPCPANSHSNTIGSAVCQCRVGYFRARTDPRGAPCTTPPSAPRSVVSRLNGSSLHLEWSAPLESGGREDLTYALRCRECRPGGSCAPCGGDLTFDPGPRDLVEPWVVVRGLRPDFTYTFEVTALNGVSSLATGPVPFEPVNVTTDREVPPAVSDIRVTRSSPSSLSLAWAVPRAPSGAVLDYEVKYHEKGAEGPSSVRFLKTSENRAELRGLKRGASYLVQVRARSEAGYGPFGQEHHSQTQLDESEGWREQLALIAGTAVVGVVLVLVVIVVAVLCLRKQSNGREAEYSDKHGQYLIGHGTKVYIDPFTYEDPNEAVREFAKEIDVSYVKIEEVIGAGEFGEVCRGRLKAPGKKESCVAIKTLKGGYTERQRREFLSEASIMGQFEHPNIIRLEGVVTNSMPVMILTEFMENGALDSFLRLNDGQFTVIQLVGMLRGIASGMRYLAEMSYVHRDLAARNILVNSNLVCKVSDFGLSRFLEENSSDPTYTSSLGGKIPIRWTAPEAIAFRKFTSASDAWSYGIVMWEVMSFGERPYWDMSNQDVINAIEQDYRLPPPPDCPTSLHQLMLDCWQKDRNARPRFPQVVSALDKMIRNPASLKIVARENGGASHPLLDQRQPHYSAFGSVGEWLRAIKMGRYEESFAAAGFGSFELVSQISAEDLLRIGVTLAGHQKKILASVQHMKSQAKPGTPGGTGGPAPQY
UniProt O75716, whole entry, looked up: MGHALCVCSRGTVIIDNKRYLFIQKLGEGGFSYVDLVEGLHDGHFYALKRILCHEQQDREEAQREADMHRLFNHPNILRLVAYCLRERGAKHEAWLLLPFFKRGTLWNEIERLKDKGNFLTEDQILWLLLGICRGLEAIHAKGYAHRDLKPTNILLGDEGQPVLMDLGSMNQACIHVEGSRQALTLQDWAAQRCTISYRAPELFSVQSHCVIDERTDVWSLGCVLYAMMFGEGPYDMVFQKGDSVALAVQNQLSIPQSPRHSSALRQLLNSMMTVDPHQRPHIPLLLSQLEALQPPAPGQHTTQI

According to the kinase profiling compilation of Christmann-Franck et al. (2016):

Columns and labels:
Assay in all cases: radiometric filter-binding kinase assay, Kinase HotSpot
Settings in all cases: compound 0.5 µM; ATP 10 µM
ULK2 (human) = ULK2 (human) (UniProt Q8IYT8)
DYRK2 (human) = DYRK2 (human) (UniProt Q92630)
MAP3K10 (human) = MAP3K10 (human) (UniProt Q02779)
NTRK2 (human) = NTRK2 (human) (UniProt Q16620)
PAK6 (human) = PAK6 (human) (UniProt Q9NQU5)
EPHB4 (human) = EPHB4 (human) (UniProt P54760)
STK16 (human) = STK16 (human) (UniProt O75716)

CO[C@H]1[C@@H](OC)C[C@H](C)[C@@H](OC)C2=CC(=O)C=C(NC(=O)/C(C)=C\C=C/[C@H](OC)[C@@H](OC(N)=O)/C(C)=C\[C@@H]1C)C2=O gave a residual activity (ULK2 (human)) of 107%, a residual activity (DYRK2 (human)) of 93.4% and a residual activity (MAP3K10 (human)) of 101%. For the same compound, the residual activity (NTRK2 (human)) was 94%, the residual activity (PAK6 (human)) was 96.3% and the residual activity (EPHB4 (human)) was 96.9%. The residual activity (STK16 (human)) was 101%.
